“Also recorded” adds a separate entry of the source.
Assays:
Type in all cases: in vivo, human
[1] = system: adolescents with Fontan physiology; experiment: FUEL trial: serum brain-type natriuretic peptide (BNP) level; details: p=0.18
[2] = system: adolescents with Fontan physiology; experiment: FUEL trial: resting data and cardiopulmonary exercise test (CPET), cycle ergometer ramp protocol; details: 87.5 mg twice daily
Text: Exercise testing can include assessment of VO2 values during maximal effort or at the ventilator anaerobic threshold (VAT). VO2 max, or maximal oxygen consumption, refers to the maximum amount of oxygen that an individual can utilize during intense exercise. This measurement is generally considered a reliable indicator of cardiovascular fitness and aerobic endurance. The more oxygen a person can use during high level exercise, the more energy that person can produce. This test has been the standard for cardiorespiratory fitness because muscles need oxygen for prolonged (aerobic) exercise; blood carries oxygen to the muscles and the heart must pump adequate amounts of blood to meet the demands of aerobic exercise.
(§1) VO2 is often measured by putting a mask on a subject, and measuring the volume and gas concentrations of inhaled and expired air. This measurement is often used in both clinical settings and research and is considered the most accurate. Testing commonly involves either exercising on a treadmill or riding a cycle ergometer at increasing intensity until exhaustion, and is designed to provide readings at a maximal effort of the subject and/or at the subject's anaerobic threshold.
Exercise testing can include assessment of VO2 values during maximal effort or at ventilator anaerobic threshold (“VAT”). VO2 max (“peak VO2”), or maximal (“peak”) oxygen consumption, refers to the maximum amount of oxygen that an individual can utilize during intense exercise. This measurement is generally considered a reliable indicator of cardiovascular fitness and aerobic endurance. Theoretically, the more oxygen a person can use during exercise, the more energy that person can produce. This test is often used for cardiorespiratory fitness because muscles need oxygen for prolonged (aerobic) exercise; blood carries oxygen to the muscles and the heart must pump adequate amounts of blood to meet the demands of aerobic exercise. However, while peak VO2 may be useful as a surrogate for many cardiovascular disease states, it may not be as relevant an endpoint after the Fontan operation. In this unique physiology, central venous pressure, rather than right ventricular contraction (pumping), is the primary driver of transpulmonary blood flow and, therefore, cardiac output. Gewillig M and Goldberg D J. Failure of the fontan circulation. Heart Fail Clin. 10(1):105-116 (January 2014); Egbe A C, Connolly H M, Miranda W R, Ammash N M, Hagler D J, Veldtman G R and Borlaug B A. Hemodynamics of Fontan Failure: The Role of Pulmonary Vascular Disease. Circ Heart Fail. 10(12): e004515 (September 2017); Gewillig M, Brown S C, Eyskens B, Heying R, Ganame J, Budts W, La Gerche A and Gorenflo M. The Fontan circulation: who controls cardiac output?Interact Cardiovasc Thorac Surg. 10(3):428-433 (March 2010); and Goldberg D J, Avitabile C M, McBride M G and Paridon S M. Exercise capacity in the Fontan circulation. Cardiol Young. 23(6):824-830 (December 2013). […]
as §1, with “This measurement is often used in both clinical settings and research and is considered the most accurate.” left out, “threshold. […]” for “threshold.”

[3] = system: adolescents with Fontan physiology; experiment: FUEL trial: echocardiographic myocardial performance index (MPI), blood pool Doppler; details: ITT
Text: Generally speaking, MPI (also referred to as the Doppler-derived index or Tei Index) is a measure of ventricular systolic and diastolic function as determined by a focused echocardiogram. It combines systolic and diastolic time intervals to assess heart function. More specifically, MPI can be used to assess ventricular performance represented by a numeric value using cardiac time intervals. This numeric value equals the sum of isovolumetric contraction time (ICT) and isovolumetric relaxation time (IRT) divided by ejection time (ET) and can be determined for either the left or right ventricle. Pellett, A. A., et al.: The Tei Index: Methodology and Disease. State Values. Echocardiography: A Jrnl. of CV Ultrasound & Allied Tech. 21(7):669-672 (2004); and Uluçay, A., Tatli E.: Myocardial performance index. Anadolu Kardiyol Derg. […] In the FUEL Trial, the MPI measured the performance of the single functioning ventricle. Thus, the MPI results from the FUEL Trial were determined by velocities obtained from blood pool Doppler assessment of the inflow and outflow tract of the functioning single ventricle. In other words, the FUEL Trial MPI was determined by measuring the cardiac time intervals using pulsed-wave Doppler velocity spectra of the ventricular inflow and outflow of the single functioning ventricle. […]

[4] = system: adolescents with Fontan physiology; experiment: FUEL trial: peripheral arterial tonometry (EndoPAT), log-transformed reactive hyperemia index (lnRHI); details: for Log-transformed reactive hyperemia index (lnRHI), difference Week 26-baseline, mean (SD): 87.5 mg twice daily
Text: Pulse amplitude tonometry (PAT), a FDA-approved method for assessing vascular function, is increasingly being used as an alternative measure of endothelium-dependent dilation in response to reactive hyperemia and flow-mediated dilation (FMD). The PAT device records digital pulse wave amplitude (PWA) using fingertip plethysmography. PWA can be measured continuously during three phases: a quiet baseline period, 5-min forearm occlusion, and reactive hyperemia following cuff release. Unlike FMD, PAT testing is not dependent upon a highly skilled technician and post-test analysis is largely automated. Most importantly, at least one longitudinal study has shown that PAT measures of endothelial function predict CVD events over a 6-year follow-up period. These significant advantages may make PAT testing suitable for clinical practice if prognostic significance and reliability can be verified.
The primary aim was to determine the effect of udenafil on exercise capacity in adolescents with Fontan physiology over a six-month period. The primary outcome was the change in oxygen consumption at peak exercise (max or peak VO2) from baseline to the 26-week visit. Secondary exercise outcomes included change in additional measures at maximal exertion, as well as change in measures of submaximal exercise at the ventilatory anaerobic threshold (VAT). […] Safety was monitored through adverse event reports, which were collected according to a pre-specified protocol of study coordinator outreach, and through ad hoc patient and family communication with members of the study team at each site.
Baseline clinical testing completed before drug initiation included a blood draw to measure brain-type natriuretic peptide (BNP) level, a cardiopulmonary exercise test (CPET) using a standardized cycle ergometer ramp protocol, a standardized echocardiogram, and an assessment of peripheral vascular function using peripheral arterial tonometry (PAT) measured by finger cuff (EndoPAT; Itamar Medical, Israel). […]

## CCCOc1ccc(S(=O)(=O)NCCC2CCCN2C)cc1-c1nc2c(CCC)nn(C)c2c(=O)[nH]1 (centres unmarked) [Udenafil, udenafil]
[1]
  Change in log serum BNP level, udenafil vs placebo: not different between groups; also recorded: no difference
[2]; Baseline, mean ± SD
  Anaerobic threshold oxygen consumption indexed to weight: 18.35 ± 4.63 (170) mL/kg/min
  Peak exercise oxygen consumption indexed to weight: 27.84 ± 6.88 (200) mL/kg/min
[2]; Change, p 0.012 vs placebo
  Anaerobic threshold oxygen consumption indexed to weight, change: −0.07 ± 3.0 (170) mL/kg/min
[2]; Change, p 0.092 vs placebo
  Peak exercise oxygen consumption indexed to weight, change: −0.23 ± 4.06 (200) mL/kg/min
[2]; baseline to 26-week
  VE/VCO2 measured at VAT, decreased by (improved ventilatory efficiency): 0.8
[3]; 87.5 mg twice daily, Week 26
  Myocardial Performance Index (MPI), mean: 146: 0.42
[3]; Baseline
  Myocardial Performance Index (MPI), mean: 150: 0.45
[4]
  Log-transformed reactive hyperemia index (lnRHI), difference Week 26-baseline, mean (SD): 0.06 (0.301)
[4]; listed as udenafil
  Log-transformed reactive hyperemia index (lnRHI), difference Week 26-baseline, mean (SD): 0.07
[4]; p 0.591
  Log-transformed reactive hyperemia index, Difference LS Mean (SE), udenafil vs placebo: 0.02 (0.030)

— patent US20250186448A1, “FORMULATIONS OF UDENAFIL” (Mezzion Pharma Co., Ltd., priority 2021, published 2025)
